Values quoted from earlier work in US9492398B2, “Nanocapsulation of essential oils for preventing or curing infectious diseases alone or with an antibiotic” (Eydo Pharma, priority 2011, dated 2016).

Conditions: from the literature; cited from earlier work

Which “LD50 in mice by intraperitoneal injection” value does the source give for CC1(C)S[C@@H]2[C@H](NC(=O)[C@H](N)c3ccc(O)cc3)C(=O)N2[C@H]1C(=O)O [Amoxicillin] here?
The value was 3590 mg/kg.
